{"source": "patent US10722444B2", "about": "“Stable hydrogel compositions including additives” (Allergan Industrie, SAS, priority 2014, dated 2020)", "experiment": "Autoclaving stability of HA-based gel with additive (pH, extrusion force, rheology, appearance)", "type": "physicochemical", "settings": "for appearance of the gel / ΔTan δ / ΔpH: catechin 0.1% of commercial solution in HA-based gel matrix at 24 mg/g containing 5% uncrosslinked HA; for ΔTan δ / ΔpH: gel with additive minus gel without", "procedure": "Stability of a hydrogel composition disclosed herein can be determined by subjecting a hydrogel composition to a heat treatment, such as, e.g., steam sterilization at normal pressure or under pressure (e.g., autoclaving). Preferably the heat treatment is carried out at a temperature of at least about 100° C. for between about one minute and about 15 minutes. Substantial stability of a hydrogel composition disclosed herein can be evaluated 1) by determining the change in the extrusion force (ΔF) of a hydrogel composition disclosed herein after sterilization, where the change in extrusion force less 2N is indicative of a substantially stable hydrogel composition as measured by (the extrusion force of a hydrogel composition with the specified additives) minus (the extrusion force of the a hydrogel composition without the added additives); and/or 2) by determining the change in rheological properties of a hydrogel composition disclosed herein after sterilization, where the change in tan δ 1 Hz of less than 0.1 is indicative of a substantially stable hydrogel composition as measured by Δ Tan δ 1 Hz=(tan δ 1 Hz of gel formulation with additives) minus (tan δ 1 Hz of gel formulation without additives). As such, a substantially stable hydrogel composition disclosed herein retains one or more of the following characteristics after sterilization: homogeneousness, extrusion force, cohesiveness, hyaluronan concentration, agent(s) concentration, osmolarity, pH, or other rheological characteristics such as tan δ.\nReminder for stability assessment with extrusion force: ΔF (F gel with additive −F gel without additive)<2N\nReminder for stability assessment with rheology: ΔTan δ (Tan δ 1 Hz gel with additive −Tan δ 1 Hz gel without additive)<0.1\nCaffeic acid, at a concentration of 0.6%,(w/w), was incorporated into a HA-based gel matrix at 24 mg/g containing 5% of uncrosslinked HA. The gel formulated was autoclaved.\nInoveol® CAFA (supplied by Libragen), (INCI name: Aqua (and) Caffeyl Glucoside), a derivative of caffeic acid, at a concentration of 0.5% (w/w) of commercial solution, was incorporated into a HA-based gel matrix containing a viscoelastic portion. The gel formulated was autoclaved.\nCatechin, at a concentration of 0.1% of commercial solution, was incorporated into a HA-based gel matrix at 24 mg/g containing 5% of uncrosslinked HA. The gel formulated was autoclaved.\nInoveol EGCG (supplied by Libragen), (INCI Name: Epigallocatechin Gallatyl Glucoside), a derivative of catechin, at a concentration of 0.5% of commercial solution, was incorporated into a HA-based gel matrix containing viscoelastic portion. The gel formulated was autoclaved.", "data": [{"substance": "Catechin", "values": [{"measurement": "appearance of the gel", "setting": "after autoclaving", "result": "clear with orange color"}, {"measurement": "ΔTan δ", "setting": "after autoclaving", "result": 0.162}, {"measurement": "ΔpH", "setting": "after autoclaving", "result": "−0.35"}, {"measurement": "rheological and extrusion force analysis, finding", "setting": "autoclaved gel with catechin 0.1%", "result": "degradation of the gel"}, {"measurement": "appearance of the gel", "setting": "before autoclaving", "result": "clear and slightly orange"}, {"measurement": "ΔTan δ", "setting": "before autoclaving", "result": 0.008}, {"measurement": "ΔpH", "setting": "before autoclaving", "result": "−0.11"}]}]}
